# AlphaSeq binding of Ab-14 heavy chain variants to a spike HR2 peptide

The target is the same throughout: PDVDLGDISGINAS, from the HR2 region of SARS-CoV-2 spike.

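Phage display of a naive human antibody library on the peptide gave the parent. AAYL49 was designed without a model: most single CDR substitutions and a random sample of double and triple ones. In AlphaSeq, yeast of one mating type display the scFv and yeast of the other type display the target. The frequency of each diploid, read from paired DNA barcodes, reflects how well the two displayed proteins bind. Each replicate has its own calibration line, from reference interactions of the BCL2 family. Each pool was mated in three replicate cultures.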

The variants keep the light chain, the linker and the frameworks of Ab-14 (scFv order VH, a 15-residue (Gly4Ser)3 linker, VL).
VH: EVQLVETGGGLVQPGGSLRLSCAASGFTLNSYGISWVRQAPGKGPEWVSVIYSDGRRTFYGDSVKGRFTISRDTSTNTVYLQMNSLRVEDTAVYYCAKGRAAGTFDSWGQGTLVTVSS
VL: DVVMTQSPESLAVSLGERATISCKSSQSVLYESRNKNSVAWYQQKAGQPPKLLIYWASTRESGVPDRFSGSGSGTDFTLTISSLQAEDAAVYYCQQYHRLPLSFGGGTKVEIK

Substitutions are numbered in sequence along the VH above, starting at 1 (not Kabat). This list gathers variants with a substitution at S107 (VH, numbered from residue 1). Values are log10 of the apparent Kd in nM; lower means stronger binding. The mean shown is taken over the replicates in which the pair was detected. "nd" means that the variant was in the library but no mating with the target was seen in any replicate; the authors take this as a sign of poor binding, and no number exists. The list is sorted by this average, lowest first, undetected variants last. Nonspecific signal, from three strains lacking the peptide, appeared in 15% of pairings of library AAYL49, centred on 4.06 (5% of these signals below 2.83); values are not corrected for it.

changes	log10 Kd (nM), mean	replicates with signal
R56K+R100S+S107L	-0.03	3/3
R56I+S107Q	0.34	3/3
S31N+S63E+S107H	0.65	3/3
G103Y+F105W+S107P	0.68	3/3
F59V+G103Q+S107W	0.80	3/3
G26V+G61V+S107M	1.69	3/3
R56S+S107F	1.79	3/3
R56L+D62N+S107F	1.92	3/3
S107V	2.12	3/3
Y32F+S107F	2.29	3/3
Y32L+R100M+S107P	2.33	3/3
V64Y+F105G+S107V	2.86	3/3
V64M+A102H+S107R	3.08	3/3
T28D+I51Y+S107L	3.08	2/3
T28M+G99M+S107Y	3.14	3/3
S107D	3.69	2/3
I34C+A101W+S107E	3.69	1/3
L29T+T58S+S107Q	3.95	1/3
G26K+Y32R+S107T	4.00	1/3
S31H+G33L+S107W	4.75	1/3
V50R+V64E+S107N	4.82	2/3
T28A+S35P+S107N	4.82	1/3
Y32R+S107E	5.45	2/3
Y52I+A102E+S107T	5.59	1/3
I34L+S107E	nd	0/3
S35G+R57T+S107F	nd	0/3
L29S+V50H+S107N	nd	0/3
F59P+S107W	nd	0/3
L29P+I34E+S107M	nd	0/3
N30M+Y32P+S107A	nd	0/3
N30I+I51N+S107E	nd	0/3
F59Q+R100L+S107P	nd	0/3
Y32H+K65L+S107I	nd	0/3
G55M+F105A+S107P	nd	0/3
L29A+Y60V+S107L	nd	0/3
L29E+I51T+S107W	nd	0/3
V64Y+A102S+S107A	nd	0/3
Y60S+S107H	nd	0/3
D54I+D62M+S107Q	nd	0/3
F27A+S35C+S107D	nd	0/3
Y60H+S63M+S107T	nd	0/3
G26S+V50T+S107H	nd	0/3
G103Q+S107E	nd	0/3
Y60E+A101G+S107Y	nd	0/3
D62N+F105Q+S107N	nd	0/3
T58G+A102I+S107R	nd	0/3
D54E+T104N+S107R	nd	0/3
Y60M+T104L+S107E	nd	0/3

The first 4 entries again:

changes	log10 Kd (nM), mean	replicates with signal
R56K+R100S+S107L	-0.03	3/3
R56I+S107Q	0.34	3/3
S31N+S63E+S107H	0.65	3/3
G103Y+F105W+S107P	0.68	3/3

In this assay the parent's reference entry averaged 0.65; its copy inside this library read 4.11 (one replicate of three).

Values reported by Engelhart et al. 2022, doi:10.1038/s41597-022-01779-4 (FLAb copy).